19 molecules from PubChem BioAssay (Tox21) can be followed below.

Several values for one entry are separate records, joined by “and”; a condition that tells them apart may be missing. A call without a number means that no potency is given here. Identical values can stand only once. The entries are a selection whose mix differs from that of the whole data set. Records with an inconclusive call do not appear. Activity calls are given as the source filed them. Calls come from the whole dose curve; as a rule, active = well fitted inhibition curve with a large enough effect in the repeat runs; inconclusive = weak or mixed curves; inactive = no such curve, though single readings can be large or run the other way.
Potency is the fitted concentration of half-maximal effect.

The test in a line: qHTS assay to identify small molecule antagonists of the thyroid receptor (TR) signaling pathway (AID 743065). Note: nearly all actives have a fitted effect of over 55% in size. Particulars: GH3.TRE-Luc, T3-stimulated luciferase inhibition, 23.5 h; series mostly up to 70.3 µM. An excerpt: U.S. Tox21 Program National Center for Advancing Translational Sciences [NCATS] NIH Chemical Genomics Center [NCGC] U.S. Environmental Protection Agency [EPA] National Institutes of Environmental Health Sciences [NIEHS] National Toxicology Program [NTP] U.S. Food and Drug Administration [FDA] Tox21 Assay Overview: Thyroid receptor (TR), a nuclear hormone receptor, plays an important role in development, proliferation, differentiation, metabolism, brain function, and cardiovascular system. […] To profile the Tox21 10K compound library in TR signaling, a cell-based GH3-TRE-Luc assay (GH3.TRE-Luc cell line, developed by the laboratory of Dr. Albertinka J. Murk, Wageningen University) was used to measure the inhibition of TR. GH3 (rat pituitary tumor) cells stably expressing a TR activity sensor consisting of two TR response elements and a luciferase reporter gene.
Tox21 Assay Protocol Summary: GH3.TRE-Luc cells were dispensed at 1500 cells/4 uL/well into 1536-well white solid bottom plates using a Multidrop Combi dispenser (Thermo Fisher Scientific Inc., Waltham, MA). After the assay plates were incubated at 37 C for 4 hours, 23 nL of library compound or DMSO controls was transferred to the assay plates by a pintool station (Kalypsys, San Diego, CA), followed by addition of 1 ul of T3 (1 nM, final concentration in the wells) to stimulate TR transactivation. The assay plates were incubated at 37 C for 23.5 h, and then 1 uL of CellTiter-Fluor reagent (Promega, Madision, WI) of measuring cytotoxicity was added to each well using a Bioraptr Flying Reagent Dispenser (FRD) workstation (Beckman Coulter, Indianapolis, IN, USA). The plates were incubated at 37 C and 5% CO2 for additional 30 min, and fluorescence intensity was measured by a ViewLux plate reader (PerkinElmer, Shelton, CT). For measuring luciferase reporter gene activity, 4 uL of ONE-Glo Luciferase Assay reagent (Promega) was added to each well using a Bioraptr FRD (Beckman Coulter), followed by 30 min incubation at room temperature. The luminescence intensity of plates was recorded by a ViewLux plate reader (PerkinElmer, Shelton, CT).
Take `O=C1C2CC=CCC2C(=O)N1SC(Cl)(Cl)C(Cl)Cl` (centres undefined): the Potency was active: 1.55 µM and active: 154 nM. With `NC(=O)Nc1ccc([As](=O)(O)O)cc1` the entry was “inactive”; with `CCOC(=O)Cl`, “inactive”; with `O=P(Cl)(Oc1ccccc1)Oc1ccccc1`, “inactive”. With `O=[As]c1ccccc1` (centres undefined), the Potency is active: 0.109 µM. Next, `N#CSc1ccc([N+](=O)[O-])cc1[N+](=O)[O-]`: active: 12.2 µM; `O=P(Cl)(Cl)c1ccccc1`: “inactive”.

For `CN(C(=O)Cc1ccc(Cl)c(Cl)c1)[C@H]1CC[C@@]2(CCCO2)C[C@@H]1N1CCCC1`, the Potency was active: 21.1 µM. With `O=[p+]1oc2ccccc2c2ccccc21` (centres undefined) the entry was “inactive”. Next, `O=C(OC1CN2CCC1CC2)c1ccccc1` (centres undefined): “inactive”; `CCOP(=S)(CC)Sc1ccccc1` (centres undefined): “inactive”. With `COC(=O)Cl` the entry was “inactive”. For the molecule `CCCCC(CC)CO[P+](=O)OCC(CC)CCCC` (centres undefined), the Potency result is “inactive”.

Take `CN(C(=O)Cc1cccc2occc12)[C@H]1CC[C@@]2(CCCO2)C[C@@H]1N1CCCC1`: the Potency result was “inactive”. For `COP(=S)(Cl)OC`, the Potency result was “inactive”. Regarding `O=[P+](Oc1ccccc1)Oc1ccccc1`, the Potency result was “inactive”. Next, `CN(C(=O)Cc1ccccc1)[C@H]1CC[C@@]2(CCCO2)C[C@@H]1N1CCCC1`: “inactive”. With `CCCCO[P+](=O)OCCCC` the entry was “inactive”.

Consider `ClP(Cl)c1ccccc1`, for which the Potency entry was “inactive”.
